The list shows a part of the results, in another mix than the full data. Activity calls are given as the source filed them. Cut-off read from the data, not from the text of the source: active = activity change below about -30%; inactive = the rest.
% is set by controls: 0 for no effect and ±100 for the full control effect.

For the assay, the system named is cytosolic chaperonin (CCT/TRiC complex). Put plainly: High-Throughput Screening for Modulators of Cytosolic Chaperonin Activity. The settings on record: purified chaperonin ATPase assay, HTRF ADP detection, 30 min; active compounds read low. The source says:
The eukaryotic chaperonin named TRiC (for TCP-1 ring complex), also called CCT (for chaperonin containing TCP1), is an essential and conserved chaperone required for the folding and activation of 10-15% of the proteins encoded by the human genome. […] Despite its central role in cellular folding, little is known about TRiC mechanism and mode of substrate binding. Currently, no specific TRiC inhibitors are available. Given the early promise of other chaperone-directed inhibitors as cancer therapeutics (e.g. HSP90 inhibitors), inhibitors of TRiC activity may also selectively target transformed cells and have potential use as therapeutics for cancer.
To this end, a miniaturized assay was developed to screen against the Molecular Libraries Small Molecule Repository (MLSMR).
NIH Chemical Genomics Center [NCGC]
NIH Molecular Libraries Probe Centers Network [MLPCN]
Assay Submitter (PI): Judith Frydman, Stanford University
1.5 uL/well TRiC enzyme suspended in buffer (30 mM TRIS pH7.4, 100 mM KCl, 5 mM MgCl2, 1 mM DTT) was added with BioRAPTR FRD dispenser at 40 nM or 20 nM (based on the enzymatic activity of used batches) final concentration to a white solid bottom medium binding 1536-well plate (Greiner Bio-One, Monroe, NC), and quickly spanned down. 23 nl/well of compound solutions in DMSO were added with a pintool transfer (Kalypsis, San Diego, CA) at a single 76 uM final concentration. Next, 1.5 µl/well ATP was dispensed with BioraptR at 10 uM final concentration after which the plates were incubated at 37 deg C for 30 min. HTRF(R) Transcreener(R) ADP (Cisbio US, Bedford, MA) detection reagents were prepared accordingly to the protocol and dispensed into the plate (1.5 uL/well each), incubated for 30 min at ambient temperature. Then, the plates were read using Envision reader with excitation at 330nm and emission at 615nm (Eu(3)-Cryptate donor signal) and 665nm (d2 acceptor signal). The ratio of […] was calculated for each well.
(In general: TR-FRET usually uses a lanthanide donor and a delayed reading to cut background.)
Turning to `CCN(N=Nc1nonc1N)c1nonc1N`, the activity change is inactive: 1.54%.
Next, `O=C(Nc1cc([As](=O)(O)O)ccc1O)c1ccccc1`: inactive: -2.8%.
Next, `O=P1(N(CCCl)CCCl)OCCCS1` (stereo not drawn): inactive: -0.526%.
Next, `O=C(O)CNc1ccc([As](=O)(O)O)cc1`: inactive: -4.28%; `COC(=O)C1(C)COP(=O)(Nc2ccccc2)OC1` (stereo not drawn): inactive: 1.19%.
Take `O=[N+]([O-])c1cccc(NC2=NCC(CBr)S2)c1` (stereo not drawn): the activity change is inactive: -13.2%.
In the case of `O=[N+]([O-])c1ncn(CCn2ncnc2[N+](=O)[O-])n1` it was inactive: -2.05%; in that of `CC(C)(C)C(=O)NC(Sc1ccncn1)C(Cl)(Cl)Cl` (stereo not drawn), inactive: 0.588%; in that of `Cc1ccc(NP(=O)(Oc2ccccc2)Oc2ccccc2)nc1`, inactive: -1.84%.
In the case of `CCc1nc2c(n1)c1c(non1O)c1c2no[n+]1[O-]` it was inactive: -0.816%.
In the case of `O=[N+]([O-])c1cc([N+](=O)[O-])c(CCNc2ccccc2)c([N+](=O)[O-])c1` it was inactive: -0.453%.
In the case of `O=[N+]([O-])c1cccc2n[nH]nc12`, the activity change was inactive: 0.625%.
Next, `CC(=O)N1C2C3N(C(C)=O)C1C1N(C(C)=O)C(C(N1C(C)=O)N3C(C)=O)N2C(C)=O`: inactive: -0.021%; `COc1ccc(C2=NCC(CBr)S2)cc1` (stereo not drawn): inactive: -0.414%.
Consider `CC1CCN(C(=O)Oc2c(Cl)cc(Cl)c3cccnc23)CC1`, for which the activity change was inactive: -3.65%.
Next, `c1cc(-c2nn[nH]n2)ccc1-c1nn[nH]n1`: inactive: -1.29%; `CC(C)c1nc(Nc2ccccc2)n(P(=O)(N(C)C)N(C)C)n1`: inactive: 1.96%; `CC(C)=N/N=C(\N)N[N+](=O)[O-]`: inactive: -0.752%.
In the case of `CN(C)C(=O)OCCc1n(C)cc[n+]1C` it was inactive: -5.15%; in that of `CCN(/C(=N/P(=O)(N1CCOCC1)N1CCOCC1)N1CCOCC1)c1ccc(OC)cc1`, inactive: 1.83%.
Next, `Nc1ccc([As](=O)(O)c2ccc(N)cc2)cc1`: inactive: -0.604%; `C[N+]1=C2C=CC=CC=C2SC12C([N+](=O)[O-])=CC([N+](=O)[O-])=C[C-]2[N+](=O)[O-]` (stereo not drawn): inactive: 0.0639%.
As to `O=C(O)C(=O)c1ccc(N(CCCl)CCCl)cc1`, the activity change was inactive: -2.99%.
In the case of `O=C(COc1ccccc1)OC1CN2CCC1CC2` (stereo not drawn) it was inactive: 1.21%.
Next, `O=C(Nc1ccncc1[N+](=O)[O-])c1ccc([N+](=O)[O-])cc1[N+](=O)[O-]`: inactive: 0.796%; `COP1(=S)c2c(C)nn(CCC#N)c2N=C(c2ccc(F)cc2)N1C` (stereo not drawn): inactive: -1.59%.
As for `COC(=O)C1(C)COP(=O)(N2CCCC2)OC1` (stereo not drawn), the activity change was inactive: -0.599%.
Next, `CCC(C)N(CC(C)C)C(=S)SC(NC(C)=O)C(Cl)(Cl)Cl` (stereo not drawn): inactive: 1.52%; `O=C(OC1CN2CCC1CC2)c1cccc([N+](=O)[O-])c1` (stereo not drawn): inactive: -3.37%.
In the case of `CSc1ccc(Nc2c([N+](=O)[O-])cc([N+](=O)[O-])cc2[N+](=O)[O-])cc1` it was inactive: -0.476%; in that of `CCOC(=O)c1ccc(NC(=O)C(C)(CCl)SC)cc1` (stereo not drawn), inactive: -1.47%; in that of `COP(=O)(OC)N1CC1c1ccccc1` (stereo not drawn), inactive: 0.103%.
In the case of `CCCCOc1ccc(C(=O)NCC2(N3CCCCC3)CCCCC2)cc1OC` it was inactive: -2.01%; in that of `Cc1cc(SC(NC(=O)c2ccccc2)C(Cl)(Cl)Cl)nc(C(C)C)n1` (stereo not drawn), inactive: 0.954%.
Regarding `CCOC(=O)Nc1ccc([As](=O)(O)O)c(O)c1`, the activity change is inactive: -1.2%.
As to `O=C(O)C(O)c1ccc(N(CCCl)CCCl)cc1` (stereo not drawn), the activity change is inactive: -3.38%.
As for `CC1CCNP(=O)(N(CCCl)CCCl)O1` (stereo not drawn), the activity change is inactive: -0.665%.
Next, `O=P(Nc1ccccn1)(c1cccc2ccccc12)c1cccc2ccccc12`: inactive: -1.49%.
In the case of `Cc1cc(SC(NC=O)C(Cl)(Cl)Cl)ncn1` (stereo not drawn), the activity change is inactive: 0.875%.
In the case of `O=[N+]([O-])c1ccc(Nc2ccc(Oc3ccc([N+](=O)[O-])cc3[N+](=O)[O-])cc2)c([N+](=O)[O-])c1`, the activity change was inactive: -0.958%.
Next, `CCOC(=O)Nc1cccc([As](=O)(O)O)c1`: inactive: -3.07%; `[N-]=[N+]=NC1CCCCC1NC(=O)c1cc([N+](=O)[O-])cc([N+](=O)[O-])c1` (stereo not drawn): inactive: -1.41%; `Cc1ccc(OP(=O)(Nc2ccc([N+](=O)[O-])cn2)Oc2ccc(C)cc2)cc1`: inactive: -0.523%.
Next, `Cc1ccc2nc3c(c(C)c2c1)CC(C(Cl)Cl)S3` (stereo not drawn): inactive: 1.01%; `C[As](=O)(O)c1cccc(C(=O)O)c1`: inactive: -2.12%.
In the case of `O=[As](O)(c1ccc(O)cc1)c1ccccc1O` it was inactive: 0.735%.
On to `O=[N+]([O-])c1ccc(-c2cc([N+](=O)[O-])c(O)c([N+](=O)[O-])c2)cc1`, for which the activity change was inactive: 0.594%.
Next, `COc1cc(C(=O)NCC2(N3CCOCC3)CCCCC2)ccc1OCC(C)C`: inactive: 0.63%.
In the case of `CC(C)NC(=O)NP(=O)(Oc1ccccc1)Oc1ccccc1` it was inactive: -0.265%; in that of `O=C(OC1CN2CCC1CC2)c1cccc2[nH]cnc12` (stereo not drawn), inactive: 1.46%; in that of `CCN(CC)C(=S)SC(NC=O)C(Cl)(Cl)Cl` (stereo not drawn), inactive: -6.13%.
Next, `O=[N+]([O-])c1cc([N+](=O)[O-])c(-c2ccn[nH]2)s1`: inactive: -0.784%.
Take `ClCCSc1nnc(-c2cccnc2)o1`: the activity change was inactive: 0.558%.
As for `COC(=O)C1(C)COP(=O)(N2CCCCCC2)OC1` (stereo not drawn), the activity change was inactive: -0.47%.
As to `CC(C)c1ccc(OP(=O)(Nc2ccccn2)Oc2ccccc2F)cc1` (stereo not drawn), the activity change was inactive: -1.7%.
Next, `O=P1(N(CCCl)CCCl)OCCCN1CCCl` (stereo not drawn): inactive: 1.96%.
In the case of `O=P1(N(CCCl)CCCl)Nc2ccccc2N1` it was inactive: -1.41%; in that of `COc1ccc2nc(NP(=O)(c3ccccc3)c3ccccc3)sc2c1`, inactive: 0.922%; in that of `COc1cc(I)ccc1[As](=O)(O)O`, inactive: 0.923%.
Next, `Cc1c2c(nc3ccccc13)SC(C(Cl)Cl)C2` (stereo not drawn): inactive: -0.305%; `O=C(OC1CN2CCC1CC2)C12CC3CC(CC(C3)C1)C2` (stereo not drawn): inactive: -1.93%; `Cc1cc(=O)[nH]c(N[N+](=O)[O-])n1`: inactive: 5.59%.
Take `O=[N+]([O-])c1cc(Oc2ccc([N+](=O)[O-])cc2C(F)(F)F)cc([N+](=O)[O-])c1`: the activity change is inactive: -1.04%.

The values are drawn from PubChem BioAssay AID651819 (National Center for Advancing Translational Sciences (NCATS), 2012).
